Reference: patent US10556943B2, “HLA-DR binding peptides and their uses” (priority 2007, dated 2020)

Sequences of proteins named here, by UniProt entry; tags and fusion partners are left off. A change or cut given only in a name is not applied to a line headed by its entry.
UniProt P01911: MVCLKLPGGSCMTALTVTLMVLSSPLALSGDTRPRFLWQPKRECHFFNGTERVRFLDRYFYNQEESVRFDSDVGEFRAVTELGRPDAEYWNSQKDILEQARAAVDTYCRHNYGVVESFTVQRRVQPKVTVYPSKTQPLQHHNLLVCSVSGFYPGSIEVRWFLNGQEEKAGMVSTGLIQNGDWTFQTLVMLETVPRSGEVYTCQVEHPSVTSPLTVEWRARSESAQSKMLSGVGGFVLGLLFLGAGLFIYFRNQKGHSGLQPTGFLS

Columns and labels:
[1] = target: T1, purified HLA DRB1*0901 (Homo sapiens, UniProt P01903+P01911, A100R/A103E/D57H/D86V/F55Y/F60I/F76Y/I96F/K127E/L162R/M171V/P40D/Q125H/Q99R/R33Q/R42F/S133A/S66N/T210M/V115G/W38K/Y107V/Y59G/Y89S); experiment: HLA-DR radioligand binding inhibition assay, DRB1*0901
T1 construct: MHC molecules utilized were purified from EBV transformed homozygous cell lines or single MHC allele transfected 721.221, C1R, or fibroblast lines; made in house; host or cells: EBV transformed homozygous cell lines or single MHC allele transfected 721.221, C1R, or fibroblast lines

[2] = target: T2, purified HLA DRB1*1201 (Homo sapiens, UniProt P01903+P01911, A100R/A169T/D57E/D86V/F55L/H45Y/K41T/L162R/M171V/P40S/Q125H/Q178H/Q39Y/Q99D/R42G/S66L/T262R/V114A/V67L/W38E/Y59H/Y61H/Y89S); experiment: HLA-DR radioligand binding inhibition assay, DRB1*1201; conditions: column 5 of second part of Table I
T2 construct: MHC molecules utilized were purified from EBV transformed homozygous cell lines or single MHC allele transfected 721.221, C1R, or fibroblast lines; made in house; host or cells: EBV transformed homozygous cell lines or single MHC allele transfected 721.221, C1R, or fibroblast lines

[3] = target: T3, purified HLA DRB1*0802 (Homo sapiens, UniProt P01903+P01911, A100R/A103L/A169T/F76Y/H45Y/I96F/K41T/L162R/M171V/P40S/Q125H/Q178H/Q39Y/Q99D/R218S/R42G/S66Y/V115G/W38E); experiment: HLA-DR radioligand binding inhibition assay, DRB1*0802
T3 construct: MHC molecules utilized were purified from EBV transformed homozygous cell lines or single MHC allele transfected 721.221, C1R, or fibroblast lines; made in house; host or cells: EBV transformed homozygous cell lines or single MHC allele transfected 721.221, C1R, or fibroblast lines

Measured: IC50

CC(C)C[C@H](NC(=O)[C@H](CC(=O)O)NC(=O)[C@H](CO)NC(=O)[C@@H](N)CCCCN)C(=O)N[C@H](C(=O)N[C@@H](CC(N)=O)C(=O)N[C@@H](CCC(=O)O)C(=O)N[C@@H](CCC(=O)O)C(=O)N[C@@H](C)C(=O)N[C@H](C(=O)NCC(=O)N[C@@H](CCC(N)=O)C(=O)N[C@@H](Cc1ccccc1)C(=O)N[C@@H](CCCNC(=N)N)C(=O)N[C@H](C(=O)O)C(C)C)[C@@H](C)O)C(C)C [Peptide 9019.0115]
> 20 µM: all assays above
